Results taken from patent publication US20040063694A1, “Compound useful for the treatment of CNS disorders” (priority 2002, published 2004).

Details: dog, in vivo
Protocol: In addition to total cholesterol values other parameters were measured including blood glucose levels at pretest, week 13 and week 26 of the study.

Cc1cc2c(s1)Nc1ccccc1N=C2N1CCN(C)CC1 [olanzapine, 2-methyl-10-(4-methyl-1-piperazinyl)-4H-thieno[2,3-b][1,5]benzodiazepine, reference compound]
blood glucose level, pretest: 84.1 mg/dL
